Data on 1 compound can be found in ChEMBL document CHEMBL1122591, “(Imidazolylphenyl)formamidines. A structurally novel class of potent histamine H2 receptor antagonists” (J Med Chem, 1984).

The chains behind the UniProt entries cited, without tags or fusion partners.
UniProt P47747, whole entry: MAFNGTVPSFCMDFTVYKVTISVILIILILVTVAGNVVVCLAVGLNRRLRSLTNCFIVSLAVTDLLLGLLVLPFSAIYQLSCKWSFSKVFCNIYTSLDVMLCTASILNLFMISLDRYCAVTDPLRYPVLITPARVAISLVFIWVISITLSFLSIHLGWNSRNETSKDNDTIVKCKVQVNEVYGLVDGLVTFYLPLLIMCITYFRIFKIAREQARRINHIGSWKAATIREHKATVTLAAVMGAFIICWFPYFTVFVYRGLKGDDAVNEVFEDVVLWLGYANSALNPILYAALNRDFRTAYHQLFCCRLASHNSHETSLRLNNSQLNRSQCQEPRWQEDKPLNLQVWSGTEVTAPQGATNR

This assay deals with Histamine H2 receptor (Cavia porcellus) (UniProt P47747). The assay is described as follows: Evaluated in vitro for histamine H2 receptor antagonist activity by using histamine-stimulated chronotropic response of the guinea pig atrium. The assay is classed as functional, tissue-based. As to conditions: Cardiac atrium.

By Kb is commonly meant the affinity of an antagonist, worked out from how it opposes an agonist. High values mean a less potent antagonist, low ones a more potent antagonist.

`CN/C(=N\CCSCc1nc[nH]c1C)NC#N` [CIMETIDINE] had an antagonist equilibrium constant (Kb) of 0.47 µM. This lies in the sub-micromolar range.
